Target: T1, RAD51 (UniProt Q06609 1-339)
T1 chain: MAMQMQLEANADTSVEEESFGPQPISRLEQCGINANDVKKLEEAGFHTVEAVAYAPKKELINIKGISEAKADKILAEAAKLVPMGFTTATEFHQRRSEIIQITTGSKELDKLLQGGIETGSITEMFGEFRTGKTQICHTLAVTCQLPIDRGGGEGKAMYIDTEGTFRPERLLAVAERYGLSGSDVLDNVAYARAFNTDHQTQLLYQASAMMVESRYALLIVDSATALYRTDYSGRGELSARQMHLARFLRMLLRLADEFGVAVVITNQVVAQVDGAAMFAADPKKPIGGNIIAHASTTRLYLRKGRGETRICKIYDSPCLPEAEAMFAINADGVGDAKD
Assay: MST

- Kd: 131 nM
B1: GRB2-SH2 domain (isolated, for MST) (domain or fragment)
chain: WFFGKIPRAKAEEMLSKQRHDGAFLIRESESAPGDFSLSVKFGNDVQHFKVLRDGAGKYFLWVVKFNSLNELVDYHRSTSVSRNQQIFLRDIE
